Data set [1] in a line: Toxicity in male ICR mouse assessed as aversion at 0.6 mg/kg, ip administered for 8 hrs and conditioned for 6 days measured after 24 hrs post conditioning by CPA test. The conditions noted are these: in vivo, 176 h.
Data set [2] in a line: Toxicity in male ICR mouse assessed as change in mouse behaviour at 0.6 mg/kg, ip measured upto 8 hrs by Rotarod test. The note with it: in vivo.
A short description of data set [3]: Toxicity in male ICR mouse assessed as sedation at 0.6 to 15.2 mg/kg, ip measured after 8 hrs by Rotarod test. The conditions noted are these: in vivo.
Data set [4] is described as follows: Toxicity in male ICR mouse assessed as aversion at 3.8 mg/kg, ip administered for 8 hrs and conditioned for 6 days measured after 24 hrs post conditioning by CPA test. The note with it: in vivo, 176 h.
A short description of data set [5]: Toxicity in male ICR mouse assessed as decrease in duration of time spent on rotarod at 3.8 mg/kg, ip measured after 4 hrs post administration by Rotarod test. The conditions noted are these: in vivo.
Data set [6] is described as follows: Toxicity in male ICR mouse assessed as effect on conditioned plate aversion at 0.6 to 3.8 mg/kg, ip measured after 4 hrs post administration by CPA test. The note with it: in vivo.
Data set [7] in a line: Toxicity in male ICR mouse assessed as aversion at 5 mg/kg, ip administered for 8 hrs and conditioned for 6 days measured after 24 hrs post conditioning by CPA test. The note with it: in vivo, 176 h.
Data set [8] can be described thus: Toxicity in male ICR mouse assessed as sedation at 5.0 mg/kg, ip measured after 8 hrs by Rotarod test. The note with it: in vivo.

As to `COc1ccc2c3c1O[C@H]1[C@@]4(OC)CC[C@@]5(C[C@@H]4c4ccccc4NCc4ccccc4)[C@@H](C2)N(CC2CC2)CC[C@]315`, the Activity result in data set [1] is listed as “Non-Toxic”; in data set [2], “Non-Toxic”; in data set [3], “Non-Toxic”; in data set [4] it was “Non-Toxic”; in data set [5], “Toxic”; in data set [6], “Non-Toxic”.
Turning to `CN(C(=O)Cc1ccc(Cl)c(Cl)c1)C1CCCCC1N1CCCC1.Cl` (stereo not drawn), the Activity entry in data set [7] and in data set [8] was “Toxic” in each case.

These data come from ChEMBL document CHEMBL5543159, “Discovery of an Ortho-Substituted N-Cyclopropylmethyl-7α-phenyl-6,14-endoethano-tetrahydronorthebaine Derivative as a Selective and Potent Kappa Opioid Receptor Agonist with Subsided Sedative Effect” (2024).
